Reference: patent EP4527191A1, “UREASE INHIBITORS” (priority 2023, dated 2025)

Target: Urease ous Canavalia ensiformis (Jack bean) (Canavalia ensiformis, UniProt P07374)
Experiment: Screening of urease inhibition (phenol red colour change, 96-well plate reader, 560 nm)
Conditions: FRM 0,1% final, urea 1g/L, urease 2 U/mL, PBS 1x, 24°C, 1 hour, printed as fraction normed to NBPT

COc1ccc2ccccc2c1
inhibition rate (normed, based on NBPT): 32.5%
